# Measurements published in patent publication US7364881B1, “Biological process for the conversion of nitroarenes to ortho-aminophenols using recombinant E. coli strains” (dated 2008).
# Sequences of proteins named here, by UniProt entry; tags and fusion partners are left off. A change or cut given only in a name is not applied to a line headed by its entry. Residues count along the entry.
# UniProt Q6DLR9, 2-227 limits assumed: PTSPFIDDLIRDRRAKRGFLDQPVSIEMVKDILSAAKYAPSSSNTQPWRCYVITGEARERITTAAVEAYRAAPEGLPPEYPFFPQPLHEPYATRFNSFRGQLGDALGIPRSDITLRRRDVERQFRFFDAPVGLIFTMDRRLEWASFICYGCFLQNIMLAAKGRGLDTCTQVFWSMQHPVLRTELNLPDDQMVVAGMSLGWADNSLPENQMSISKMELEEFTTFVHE
# UniProt Q01234: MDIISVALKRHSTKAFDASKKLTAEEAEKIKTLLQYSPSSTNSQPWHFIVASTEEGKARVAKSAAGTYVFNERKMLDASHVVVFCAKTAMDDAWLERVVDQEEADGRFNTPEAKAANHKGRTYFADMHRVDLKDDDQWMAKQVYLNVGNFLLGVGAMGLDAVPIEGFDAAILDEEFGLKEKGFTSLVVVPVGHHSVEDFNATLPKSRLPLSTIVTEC
# Biological target: T1, NB nitroreductase (NbzA) (Ectopseudomonas oleovorans, UniProt Q6DLR9)
# Test: not given
# Conditions: wild-type JS45, NB as the substrate; cited from earlier work
row,Compound,Specific activity of NB nitroreductase reported previously [U mg^−1 protein]
1,O=[N+]([O-])c1ccccc1,2.4

# Test system: not listed separately
# Test: Stability of the aminophenol in solution
# Conditions: neutral solution at 4° C.
row,Compound,Stability in solution (time stable)
1,2-Amino-3-hydroxyacetophenone,more than 8 months

# Test system: whole cells of E. coli strain JS996
# Test: Whole-cell biotransformation by strain JS996
# Conditions: resting IPTG-induced JS996 cells, A600 2, pH 7.0, 37° C., initial 10 min of reaction
row,Compound,Rate of substrate transformation [nmol min^−1 mg^−1 protein]
1,4-Nitrobiphenyl ether,1.13
2,O=[N+]([O-])c1cccc2ccccc12,0.93
3,O=[N+]([O-])c1ccccc1,2.0
4,Cc1cccc([N+](=O)[O-])c1,1.62
5,Cc1ccccc1[N+](=O)[O-],0.47

# Same assay, conditions: strain JS996, 30° C., 100 μM NB, pH 8, 1% glucose, initial 10 min
Compound,Specific activity for production of 2AP [nmol min^−1 mg^−1 protein],Specific activity for transformation of NB [nmol min^−1 mg^−1 protein]
Nc1ccccc1O,5.0,
O=[N+]([O-])c1ccccc1,,5.4

# Test system: whole cells of E. coli strain JS995
# Test: Whole-cell biotransformation by strain JS995
# Conditions: strain JS995, 30° C., 100 μM NB, pH 8, 1% glucose, initial 10 min
Compound,Specific activity for production of 2AP [nmol min^−1 mg^−1 protein],Specific activity for transformation of NB [nmol min^−1 mg^−1 protein]
Nc1ccccc1O,12.5,
O=[N+]([O-])c1ccccc1,,13.4

# Same assay, conditions: strain JS995, absence of glucose
row,Compound,Transformation rate
1,O=C(C[N+](=O)[O-])c1ccccc1,very low

# Same assay, conditions: strain JS995, absence of glucose, end of 110 min of incubation
row,Compound,Added substrate transformed
1,O=C(C[N+](=O)[O-])c1ccccc1,50

# Same assay, conditions: strain JS995, presence of glucose, initial 10 min of reaction
row,Compound,Specific activity for the transformation of 2NAP [nmol min^−1 mg^−1 protein]
1,O=C(C[N+](=O)[O-])c1ccccc1,17.6

# Same assay, conditions: strain JS995 whole cells, pH 8.0, 1% glucose, FIG. 2b
row,Compound,Transformation of 3NAP to a single product
1,3-Nitroacetophenone,very rapidly

# Test system: host strains carrying only the vectors
# Test: Nitroreductase activity in extracts of host strains carrying only the vectors
# Conditions: control host strain, vector alone
row,Compound,Nitroreductase activity in the control host strain containing vector alone [U mg^−1 protein]
1,O=[N+]([O-])c1cccc([N+](=O)[O-])c1,0.10

# Same assay, conditions: induced cells of host strains, vectors only
row,Compound,Nitroreductase activity in extracts of induced host strains carrying only the vectors
1,O=[N+]([O-])c1ccccc1,No nitroreductase activity
2,O=C(C[N+](=O)[O-])c1ccccc1,No nitroreductase activity

# Biological target: T1, NB nitroreductase (NbzA)
# Test: Reductase activity in cell extracts (initial rate of NADPH disappearance), NbzA expressed in E. coli JS995
# Conditions: averages of duplicates, deviation <10%
row,Compound,Specific activity of recombinant nitroreductase NbzA in cell extracts
1,Cc1ccc([N+](=O)[O-])cc1,0.1 μmol of NADPH oxidized min^−1 mg^−1 protein
2,O=C(O)c1ccccc1[N+](=O)[O-],0.3 μmol of NADPH oxidized min^−1 mg^−1 protein
3,4-Nitrobiphenyl ether,0.8 μmol of NADPH oxidized min^−1 mg^−1 protein
4,O=C(O)c1cccc([N+](=O)[O-])c1,0.3 μmol of NADPH oxidized min^−1 mg^−1 protein
5,O=[N+]([O-])c1ccccc1,2.5 μmol of NADPH oxidized min^−1 mg^−1 protein
6,O=[N+]([O-])c1cccc([N+](=O)[O-])c1,2.9 μmol of NADPH oxidized min^−1 mg^−1 protein
7,O=Cc1ccc([N+](=O)[O-])cc1,0.1 μmol of NADPH oxidized min^−1 mg^−1 protein
8,Cc1cccc([N+](=O)[O-])c1,1.9 μmol of NADPH oxidized min^−1 mg^−1 protein
9,O=Cc1ccccc1[N+](=O)[O-],2.3 μmol of NADPH oxidized min^−1 mg^−1 protein
10,O=C(C[N+](=O)[O-])c1ccccc1,1.6 μmol of NADPH oxidized min^−1 mg^−1 protein
11,O=C(O)c1ccc([N+](=O)[O-])cc1,0.7 μmol of NADPH oxidized min^−1 mg^−1 protein
12,3-Nitroacetophenone,2.1 μmol of NADPH oxidized min^−1 mg^−1 protein
13,4-Nitroacetophenone,1.7 μmol of NADPH oxidized min^−1 mg^−1 protein
14,Cc1ccccc1[N+](=O)[O-],1.4 μmol of NADPH oxidized min^−1 mg^−1 protein
15,O=Cc1cccc([N+](=O)[O-])c1,2.0 μmol of NADPH oxidized min^−1 mg^−1 protein

# Biological target: E. cloacae nitroreductase (Nfs1) (Enterobacter cloacae, UniProt Q01234)
# Test: Reductase activity in cell extracts (initial rate of NADPH disappearance), Nfs1 expressed in E. coli JS996
# Conditions: averages of duplicates, deviation <10%
row,Compound,Specific activity of recombinant nitroreductase Nfs1 in cell extracts
1,Cc1ccc([N+](=O)[O-])cc1,<0.1 μmol of NADPH oxidized min^−1 mg^−1 protein
2,O=C(O)c1ccccc1[N+](=O)[O-],<0.1 μmol of NADPH oxidized min^−1 mg^−1 protein
3,4-Nitrobiphenyl ether,0.2 μmol of NADPH oxidized min^−1 mg^−1 protein
4,O=C(O)c1cccc([N+](=O)[O-])c1,0.1 μmol of NADPH oxidized min^−1 mg^−1 protein
5,O=[N+]([O-])c1ccccc1,0.1 μmol of NADPH oxidized min^−1 mg^−1 protein
6,O=[N+]([O-])c1cccc([N+](=O)[O-])c1,5.1 μmol of NADPH oxidized min^−1 mg^−1 protein
7,O=Cc1ccc([N+](=O)[O-])cc1,<0.1 μmol of NADPH oxidized min^−1 mg^−1 protein
8,Cc1cccc([N+](=O)[O-])c1,0.1 μmol of NADPH oxidized min^−1 mg^−1 protein
9,O=Cc1ccccc1[N+](=O)[O-],0.7 μmol of NADPH oxidized min^−1 mg^−1 protein
10,O=C(C[N+](=O)[O-])c1ccccc1,0.1 μmol of NADPH oxidized min^−1 mg^−1 protein
11,O=C(O)c1ccc([N+](=O)[O-])cc1,0.1 μmol of NADPH oxidized min^−1 mg^−1 protein
12,3-Nitroacetophenone,0.2 μmol of NADPH oxidized min^−1 mg^−1 protein
13,4-Nitroacetophenone,0.9 μmol of NADPH oxidized min^−1 mg^−1 protein
14,Cc1ccccc1[N+](=O)[O-],<0.1 μmol of NADPH oxidized min^−1 mg^−1 protein
15,O=Cc1cccc([N+](=O)[O-])c1,0.3 μmol of NADPH oxidized min^−1 mg^−1 protein
